Consider one substance from patent US20110135757A1, “MICROAEROSOL-BASED DECONTAMINATION METHOD” (published 2011).

The nature of the experiment: Decontamination effectiveness of MAEAS in the presence of Fe+2. The settings on record: FeSO4 added to sodium chloride for the production of MAEAS.

As to FeSO4, the “effect on decontaminating effectiveness of MAEAS” value is “positive effect”.
